Here are results for 23 compounds from US20160222014A1, “COMPOUNDS FOR REGULATING FAK AND/OR SRC PATHWAYS” (ASANA BIOSCIENCES, LLC, priority 2013, published 2016).

Chains of the proteins cited; added tags and fusions are not shown. Residues count along the entry.
UniProt Q05397, 422-680 limits assumed: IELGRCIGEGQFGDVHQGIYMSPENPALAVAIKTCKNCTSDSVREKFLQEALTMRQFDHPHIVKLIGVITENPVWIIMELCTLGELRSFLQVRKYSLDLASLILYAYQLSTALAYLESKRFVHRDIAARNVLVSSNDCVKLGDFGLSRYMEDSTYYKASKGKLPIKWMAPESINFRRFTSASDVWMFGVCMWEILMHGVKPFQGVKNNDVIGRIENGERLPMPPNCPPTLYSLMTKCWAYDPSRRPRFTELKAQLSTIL
UniProt Q05397, whole entry: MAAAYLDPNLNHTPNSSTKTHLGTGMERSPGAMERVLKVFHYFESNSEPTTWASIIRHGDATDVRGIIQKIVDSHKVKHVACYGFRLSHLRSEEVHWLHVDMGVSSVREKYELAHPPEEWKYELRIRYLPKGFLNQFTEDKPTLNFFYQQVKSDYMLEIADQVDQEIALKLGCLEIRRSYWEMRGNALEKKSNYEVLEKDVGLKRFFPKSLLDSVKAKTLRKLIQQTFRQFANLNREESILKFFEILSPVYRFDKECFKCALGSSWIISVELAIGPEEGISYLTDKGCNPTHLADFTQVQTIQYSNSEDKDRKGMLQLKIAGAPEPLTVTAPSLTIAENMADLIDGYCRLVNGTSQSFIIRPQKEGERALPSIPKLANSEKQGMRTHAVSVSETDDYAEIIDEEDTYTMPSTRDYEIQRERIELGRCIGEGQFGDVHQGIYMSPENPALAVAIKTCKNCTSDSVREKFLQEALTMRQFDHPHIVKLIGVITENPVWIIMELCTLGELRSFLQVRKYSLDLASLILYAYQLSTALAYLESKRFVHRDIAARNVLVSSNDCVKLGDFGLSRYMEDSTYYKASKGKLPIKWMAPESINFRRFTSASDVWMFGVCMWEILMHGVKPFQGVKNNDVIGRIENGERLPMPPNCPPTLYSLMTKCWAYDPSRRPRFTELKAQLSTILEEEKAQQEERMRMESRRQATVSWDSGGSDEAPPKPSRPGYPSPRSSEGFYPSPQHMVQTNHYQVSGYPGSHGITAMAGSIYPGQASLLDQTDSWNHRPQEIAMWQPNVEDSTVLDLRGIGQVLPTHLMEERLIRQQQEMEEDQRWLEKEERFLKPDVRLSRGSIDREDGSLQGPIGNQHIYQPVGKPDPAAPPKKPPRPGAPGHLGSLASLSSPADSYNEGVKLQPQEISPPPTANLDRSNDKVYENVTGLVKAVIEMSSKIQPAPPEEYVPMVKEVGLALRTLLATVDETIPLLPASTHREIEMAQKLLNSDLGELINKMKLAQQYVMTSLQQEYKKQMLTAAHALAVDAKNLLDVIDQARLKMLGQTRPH
UniProt P12931, whole entry: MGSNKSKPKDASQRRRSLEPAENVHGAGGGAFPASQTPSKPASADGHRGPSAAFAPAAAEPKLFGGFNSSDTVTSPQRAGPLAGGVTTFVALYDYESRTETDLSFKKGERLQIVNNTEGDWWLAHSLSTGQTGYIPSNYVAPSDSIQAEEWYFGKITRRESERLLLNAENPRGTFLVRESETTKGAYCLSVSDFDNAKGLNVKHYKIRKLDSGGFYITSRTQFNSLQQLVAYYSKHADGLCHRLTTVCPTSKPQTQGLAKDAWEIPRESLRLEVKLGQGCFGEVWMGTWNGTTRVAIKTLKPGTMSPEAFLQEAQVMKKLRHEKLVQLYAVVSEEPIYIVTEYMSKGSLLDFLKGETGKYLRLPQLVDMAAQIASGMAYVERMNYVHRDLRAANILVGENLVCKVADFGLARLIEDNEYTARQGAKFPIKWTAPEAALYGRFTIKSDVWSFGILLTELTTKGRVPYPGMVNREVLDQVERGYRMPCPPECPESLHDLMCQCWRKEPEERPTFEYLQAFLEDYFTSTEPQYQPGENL
UniProt Q96GD4, whole entry: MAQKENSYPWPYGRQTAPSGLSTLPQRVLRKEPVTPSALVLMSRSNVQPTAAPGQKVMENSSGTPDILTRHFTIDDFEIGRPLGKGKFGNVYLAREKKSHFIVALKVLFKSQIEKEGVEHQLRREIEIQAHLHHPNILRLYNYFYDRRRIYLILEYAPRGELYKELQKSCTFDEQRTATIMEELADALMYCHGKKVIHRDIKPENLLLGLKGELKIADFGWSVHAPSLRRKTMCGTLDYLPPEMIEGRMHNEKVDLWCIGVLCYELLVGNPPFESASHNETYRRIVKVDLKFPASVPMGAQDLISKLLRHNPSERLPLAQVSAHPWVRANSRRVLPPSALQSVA
UniProt O60674, whole entry: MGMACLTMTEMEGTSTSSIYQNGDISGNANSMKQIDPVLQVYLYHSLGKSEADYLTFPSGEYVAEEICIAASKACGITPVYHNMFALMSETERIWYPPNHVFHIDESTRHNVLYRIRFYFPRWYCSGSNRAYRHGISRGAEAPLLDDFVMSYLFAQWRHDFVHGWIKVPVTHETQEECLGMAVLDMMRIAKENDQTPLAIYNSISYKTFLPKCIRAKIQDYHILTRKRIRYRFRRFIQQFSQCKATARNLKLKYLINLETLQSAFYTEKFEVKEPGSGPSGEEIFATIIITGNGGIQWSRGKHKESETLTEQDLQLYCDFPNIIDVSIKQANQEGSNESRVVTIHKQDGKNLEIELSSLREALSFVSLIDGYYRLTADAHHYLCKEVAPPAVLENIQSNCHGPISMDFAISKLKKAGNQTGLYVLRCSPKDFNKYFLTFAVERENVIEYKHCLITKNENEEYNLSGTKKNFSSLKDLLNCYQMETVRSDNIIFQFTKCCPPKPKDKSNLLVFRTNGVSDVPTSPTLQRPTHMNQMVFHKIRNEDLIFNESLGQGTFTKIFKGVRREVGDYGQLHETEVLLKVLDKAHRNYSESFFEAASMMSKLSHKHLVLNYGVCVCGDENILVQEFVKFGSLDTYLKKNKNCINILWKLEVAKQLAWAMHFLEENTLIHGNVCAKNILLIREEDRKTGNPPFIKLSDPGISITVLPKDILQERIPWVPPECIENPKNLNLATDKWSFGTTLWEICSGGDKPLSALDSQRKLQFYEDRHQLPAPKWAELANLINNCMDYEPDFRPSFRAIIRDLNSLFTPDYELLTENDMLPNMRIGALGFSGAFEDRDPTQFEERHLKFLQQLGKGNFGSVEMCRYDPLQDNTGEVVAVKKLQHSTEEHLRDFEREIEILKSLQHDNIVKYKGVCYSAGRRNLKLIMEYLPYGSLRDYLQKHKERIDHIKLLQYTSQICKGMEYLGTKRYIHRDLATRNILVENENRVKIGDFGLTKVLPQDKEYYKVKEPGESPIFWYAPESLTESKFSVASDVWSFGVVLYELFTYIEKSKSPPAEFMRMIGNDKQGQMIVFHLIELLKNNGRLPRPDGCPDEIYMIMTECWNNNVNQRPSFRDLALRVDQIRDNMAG

For experiment [1], the target named is FAK phosphorylated at Y397 in HEK-FAK cell line overexpressing human FL FAK protein (Homo sapiens, UniProt Q05397). Description: Cell based assay, Phospho-FAK ELISA. The conditions noted are these: read-out: pFAK EC50 (μM) HEK stb. (In general: An ELISA detects its analyte on a solid surface through an enzyme-linked reagent.)
In a further experiment the target is recombinant human FAK1 (Homo sapiens, UniProt Q05397). Description: FAK1 HTRF assay. The conditions noted are these: read-out: FAK1 HTRF IC50.
The next experiment deals with Phospho Src(Y416) (Homo sapiens, UniProt P12931). In words: Phospho Src(Y416) Sandwich ELISA. The conditions noted are these: read-out: pSrc EC50 (μM) Panc1.
A further experiment concerns the target AURKB (Aurora B) enzyme (Homo sapiens, UniProt Q96GD4). In words: Aurora B HTRF assay. The conditions noted are these: read-out: AuroraB IC50.
The next experiment has as its target JAK2 (Homo sapiens, UniProt O60674). Description: JAK2 biochemical potency. The conditions noted are these: read-out: JAK2 HTRF IC50. For orientation: TR-FRET usually uses a lanthanide donor and a delayed reading to cut background.

For the compound `O=C1Cc2cc(Nc3ncc4ccn(S(=O)(=O)c5cccc6cccnc56)c4n3)ccc2N1`, the EC50 is below 0.02 µM in experiment [1] and above 1 µM on Phospho Src(Y416). Besides, the IC50 on recombinant human FAK1, at AURKB (Aurora B) enzyme and on JAK2 was below 20 nM each time.
`CN(c1ccccc1Cn1ccc2cnc(Nc3ccc(N(C)[C@H]4CC[C@H](O)CC4)cc3)nc21)S(C)(=O)=O`: at AURKB (Aurora B) enzyme, the IC50 is below 20 nM.
Consider `CCN1CCN(c2ccc(Nc3ncc4ccn(Cc5cccnc5N(C)S(C)(=O)=O)c4n3)cc2)CC1`, for which the IC50 at recombinant human FAK1 was below 20 nM. On Phospho Src(Y416), the EC50 is above 1 µM.
For the compound `CN(c1ncccc1Cn1ccc2cnc(Nc3ccc(C4CNC(=O)CO4)cc3)nc21)S(C)(=O)=O` (stereo not shown), the EC50 at Phospho Src(Y416) was above 1 µM.
On to `Cc1ccc(N(C)S(C)(=O)=O)c(Cn2ccc3cnc(Nc4ccc(N5CCN[C@H](C)C5)cc4)nc32)c1`, for which the IC50 on recombinant human FAK1 and on AURKB (Aurora B) enzyme was below 20 nM throughout.
Turning to `O=C(C1CC1)N1CCN(c2ccc(Nc3ncc4ccn(S(=O)(=O)c5cccc6cccnc56)c4n3)cc2)CC1`, the concentration for a half-maximal effect (EC50) was below 0.02 µM in experiment [1] and above 1 µM on Phospho Src(Y416). Further, the IC50 at recombinant human FAK1 and at AURKB (Aurora B) enzyme was below 20 nM each time.
Regarding `C[C@@H]1CN(c2ccc(Nc3ncc4ccn(Cc5ccccc5N(CCO)S(C)(=O)=O)c4n3)cc2)CCN1`, the EC50 in experiment [1] is above 1 µM.
For `N#Cc1ccccc1S(=O)(=O)n1ccc2cnc(Nc3ccc(CN4CCCC(O)C4)cc3)nc21` (stereo not shown), the IC50 at AURKB (Aurora B) enzyme was below 20 nM.
As for `COCCN1CCN(c2ccc(Nc3cc4c(cn3)cnn4S(=O)(=O)c3cccc4cccnc34)c(OC)c2)CC1`, the half-inhibitory concentration (IC50) on recombinant human FAK1 is below 20 nM.
Same read-out and setting: with `CC(=O)Nc1ccc(Nc2ncc3ccn(Cc4ccccc4N(C)S(C)(=O)=O)c3n2)cc1` the figure was below 20 nM.
For `CN(C)C1CCN(c2ccc(Nc3ncc4ccn(-c5cccc(N(C)S(C)(=O)=O)n5)c4n3)cc2)CC1`, the concentration giving a half-maximal response (EC50) in experiment [1] is above 1 µM.
With `CN(c1ncccc1Cn1ccc2cnc(Nc3ccc(C(=O)NCC(C)(C)O)c(F)c3)nc21)S(C)(=O)=O`, the EC50 (in experiment [1]; on Phospho Src(Y416)) was above 1 µM each time.
As for `Cc1cc(Nc2ncc3cnn(S(=O)(=O)c4cccc5cccnc45)c3n2)ccc1N1CCOCC1`, the half-maximal inhibitory concentration (IC50) on recombinant human FAK1 is below 20 nM. Also, on Phospho Src(Y416), the EC50 was above 1 µM.
For `CC(=O)N1CC2CC1CN2c1ccc(Nc2ncc3ccn(S(=O)(=O)c4cccc5cccnc45)c3n2)cc1` (stereo not shown), the IC50 at recombinant human FAK1 is below 20 nM.
With `C[C@@H]1CN(c2ccc(Nc3ncc4c(n3)N(S(=O)(=O)c3cccc5ccccc35)CC4(C)C)cc2)CCN1`, the EC50 in experiment [1] is above 1 µM. Moreover, on AURKB (Aurora B) enzyme, the IC50 was above 1000 nM.
`CS(=O)(=O)Nc1ccccc1Cn1ccc2cnc(Nc3ccc4c(c3)CC(=O)N4)nc21`: the IC50 on recombinant human FAK1 and at AURKB (Aurora B) enzyme was below 20 nM in each case. Also, the EC50 on Phospho Src(Y416) is above 1 µM.
As for `COc1cc(N2CCNCC2)ccc1Nc1ncc2ccn(Cc3ccccc3N(C)S(C)(=O)=O)c2n1`, the 50% inhibitory concentration (IC50) at recombinant human FAK1 was below 20 nM.
For the compound `N#Cc1ccccc1S(=O)(=O)n1ccc2cnc(Nc3ccc4c(c3)CC(=O)N4)nc21`, the IC50 on recombinant human FAK1 and on AURKB (Aurora B) enzyme was below 20 nM each time. Further, on Phospho Src(Y416), the EC50 is above 1 µM.
Turning to `CC(=O)Nc1cccc(Nc2ncc3ccn(C(=O)c4ccccc4OC(F)F)c3n2)c1`, the IC50 at JAK2 was below 20 nM.
In the case of `COc1cc(N2CCC(OC(C)=O)CC2)ccc1Nc1ncc2ccn(Cc3ccccc3N(C)S(C)(=O)=O)c2n1`, the half-inhibitory concentration (IC50) on recombinant human FAK1 is below 20 nM.
As to `C[C@@H](O)CN1CCN(c2ccc(Nc3ncc4ccn(Cc5cccnc5N(C)S(C)(=O)=O)c4n3)cc2)CC1` [Example 666], the EC50 in experiment [1] was above 1 µM.
`C[C@H]1CN(c2ccc(Nc3ncc4ccn(Cc5cc(F)ccc5N(C)S(C)(=O)=O)c4n3)cc2)CCN1`: the half-inhibitory concentration (IC50) at recombinant human FAK1 is below 20 nM.
As to `Cn1cc(Nc2cc3c(ccn3S(=O)(=O)c3cccc4cccnc34)cn2)cn1`, the IC50 at recombinant human FAK1 and on AURKB (Aurora B) enzyme was below 20 nM throughout.

In general, EC50 refers to the concentration that produces a half-maximal response. As usually defined, the IC50 is the point on the concentration scale where inhibition reaches its midpoint.
